Laboratory results as given in US9901582B2, “Polymorphisms in ABCB1 associated with a lack of clinical response to medicaments” (Max-Planck-Gesellschaft zur Förderung der Wisenschaften e. …, priority 2007, dated 2018).

Sequences of proteins named here, by UniProt entry; tags and fusion partners are left off.
UniProt P08183, whole entry: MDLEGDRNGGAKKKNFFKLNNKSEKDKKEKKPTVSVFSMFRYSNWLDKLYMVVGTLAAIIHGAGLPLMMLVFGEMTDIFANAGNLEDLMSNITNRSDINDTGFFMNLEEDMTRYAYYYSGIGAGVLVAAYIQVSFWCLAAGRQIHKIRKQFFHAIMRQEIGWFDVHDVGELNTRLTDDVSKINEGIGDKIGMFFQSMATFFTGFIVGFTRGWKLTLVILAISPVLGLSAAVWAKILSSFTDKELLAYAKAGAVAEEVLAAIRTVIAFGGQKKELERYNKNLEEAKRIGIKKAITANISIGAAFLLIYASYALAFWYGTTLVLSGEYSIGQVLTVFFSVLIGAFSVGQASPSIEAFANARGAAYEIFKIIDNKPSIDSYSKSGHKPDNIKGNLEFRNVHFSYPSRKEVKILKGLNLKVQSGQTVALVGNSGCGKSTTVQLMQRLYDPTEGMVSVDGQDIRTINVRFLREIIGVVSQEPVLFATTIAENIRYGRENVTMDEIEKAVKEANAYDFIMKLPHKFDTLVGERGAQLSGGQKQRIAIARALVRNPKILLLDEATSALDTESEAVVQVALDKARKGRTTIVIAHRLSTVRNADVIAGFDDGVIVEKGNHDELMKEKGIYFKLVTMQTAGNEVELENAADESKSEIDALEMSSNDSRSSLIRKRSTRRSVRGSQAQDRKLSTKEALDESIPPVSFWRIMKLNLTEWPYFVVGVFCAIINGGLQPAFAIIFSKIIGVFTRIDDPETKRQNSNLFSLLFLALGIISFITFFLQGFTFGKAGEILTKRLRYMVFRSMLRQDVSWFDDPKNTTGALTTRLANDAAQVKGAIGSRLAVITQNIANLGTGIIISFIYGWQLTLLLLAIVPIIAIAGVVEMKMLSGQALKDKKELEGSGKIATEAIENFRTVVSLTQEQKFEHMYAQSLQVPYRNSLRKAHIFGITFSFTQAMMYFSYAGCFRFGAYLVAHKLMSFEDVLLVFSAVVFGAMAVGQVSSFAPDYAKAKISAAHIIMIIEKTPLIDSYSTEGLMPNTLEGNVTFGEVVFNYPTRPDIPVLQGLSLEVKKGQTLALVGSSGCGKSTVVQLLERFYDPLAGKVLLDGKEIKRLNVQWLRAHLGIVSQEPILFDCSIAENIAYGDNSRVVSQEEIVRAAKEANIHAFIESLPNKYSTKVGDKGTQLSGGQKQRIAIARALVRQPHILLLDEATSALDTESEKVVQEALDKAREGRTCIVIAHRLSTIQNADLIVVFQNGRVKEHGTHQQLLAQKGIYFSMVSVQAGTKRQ

Experiments:
P-gp [1] = conditions: male, abcb1ab(−/−) on FVB/N background versus FVB/N wild-type, mouse, sc, 11 days
P-gp [2] = experiment: Organ and plasma concentrations of antidepressants in abcb1ab(−/−) knockout mice versus FVB/N wild-type controls (blood-organ barrier function); conditions: 11 days s.c., FIG. 1
ABCB1 = ABCB1 (Homo sapiens, UniProt P08183); conditions: cited from earlier work

CN(C)CCCC1(c2ccc(F)cc2)OCc2cc(C#N)ccc21 (centres unmarked) [Citalopram]
ratio (−/−)/(+/+), cerebrum (P-gp [1]; in vivo): 3.0
ratio (−/−)/(+/+), kidney (P-gp [1]; in vivo): 0.8
ratio (−/−)/(+/+), liver (P-gp [1]; in vivo): 1.0
ratio (−/−)/(+/+), lung (P-gp [1]; in vivo): 1.0
ratio (−/−)/(+/+), plasma (P-gp [1]; in vivo): 0.8
ratio (−/−)/(+/+), spleen (P-gp [1]; in vivo): 1.0
ratio (−/−)/(+/+), testes (P-gp [1]; in vivo): 1.6
penetration into the brain (organ/plasma concentration ratio), times higher in animals lacking P-gp than in control animals (P-gp [1]; not told): 3.7 times
differences in testes/plasma ratio between knockout and control (P-gp [2]): smaller but still significant differences

Cc1cc2c(s1)Nc1ccccc1N=C2N1CCN(C)CC1 [Olanzapine]
Substrate (ABCB1): (x)

Mitomycin C
Inhibitor (ABCB1): (x)
